Where “and” joins values, the source holds several entries; their conditions need not be identical. Equal entries are not always repeated. Where two headings read alike, the source gives them in different places.
Columns and labels:
[1] = tested on: HSCs; test: Quantitative RT-PCR of TGF-β1-induced gene transcription in HSCs; format: cell-based, human
[2] = tested on: male C57BL/6 mice; test: Interventional NASH model (treatment from day 240 of high fat, high cholesterol, high sugar diet); format: in vivo; settings: for reduction of COL1α(I) synthesis rate / reduction of COL1α(III) synthesis rate / reduction of COLα1(V) synthesis rate: additional analyses (Table 2)
[3] = tested on: Mdr2^−/− BALB/c; test: Interventional PSC model; format: in vivo, mice
[4] = tested on: TAA-induced liver fibrosis; test: TAA-induced liver fibrosis; settings: in vivo
[5] = tested on: male C57BL/6 mice
[6] = tested on: Mdr2^−/− PSC model; settings: FIG. 22
[7] = Example 3, 80 days of treatment
[8] = NASH diet with 0.15% Compound 1 at Day 315
[9] = 6 weeks treatment, vs control group
[10] = day 360, vs fast food diet mice

SMILES: O=C(Nc1cccc(-c2nncn2C2CC2)c1)c1cc(-n2cnc(C3CC3)c2)ccn1 [Compound 1]
- TGF-β signaling in hepatic stellate cells [1]: blocked
- activation of p38 ([2]; 0.15% of compound 1): reduced
- AST/ALT, serum cholesterol, and cholesterol/triglyceride ([2]; Example 3): statistically significant improvements
- body weight ([2]; Example 3): body weight loss
- normalizing fasting blood glucose levels ([2]; Example 3): 17.1%
- normalizing insulin levels ([2]; Example 3): 13.7%
- synthesis rates of extracellular matrix proteins (Col1a1, Col1a3, and Col1a5) ([2]; Example 3): affected
- reduction in hepatic HYP content [2, 7]: 44%
- reduction in percent collagen area by 2nd harmonic imaging [2, 7]: 84%
- reduction of hepatic steatosis [2, 7]: 33%
- reduction of hepatic steatosis ([2]; Example 4, FIG. 23B): 61.9%
- HA serum level (ELISA) [2, 8]: 680.9 ± 181.3 ng/mL
- HYP [2, 8]: 612 ± 109 µg/mL
- HYP synthesis [2, 8]: 5.0 ± 1.9%
- IL-6 serum level (ELISA) [2, 8]: 13.7±7 pg/mL and 13.7 ± 7 ^ pg/mL
- Insoluble COL1α(I) synthesis [2, 8]: 3 ± 0.7%
- Insoluble COL1α(III) synthesis [2, 8]: 4.9 ± 2.0%
- Insoluble COLα1(V) synthesis [2, 8]: 4.8 ± 0.4%
- OPN serum level (ELISA) [2, 8]: 61.9±23 ng/mL and 61.9 ± 23 ^ ng/mL
- Soluble COL1α(I) synthesis [2, 8]: 18.7 ± 5.7%
- Soluble COL1α(III) synthesis [2, 8]: 25.7 ± 1.2%
- Soluble COLα1(V) synthesis [2, 8]: 10.7 ± 3.1%
- TIMP1 serum level (ELISA) [2, 8]: 1841±532.3 pg/mL and 1841 ± 532.3^ pg/mL
- αSMA synthesis [2, 8]: 59.6 ± 6.3%
- relative hydroxyproline levels ([2]; additional studies, FIG. 30): decrease
- steatosis compared to day 0 of the control group ([2]; after treatment): Statistically less
- expression of p-p38 ([2]; data not shown): decreased expression
- hydroxyproline synthesis ([2]; day 80, D2O labeling (text b311)): 1.8%
- positive steatotic area ([2]; day 80, control 20.1%): 7.8%
- hepatic hydroxyproline levels ([2]; day 80 of the treatment): 612 µg/g
- reduction of circulating ALT ([2]; day 315, vs no treatment): 32.3%
- reduction of circulating AST ([2]; day 315, vs no treatment): 20.5%
- reduction of circulating cholesterol ([2]; day 315, vs no treatment): 9.4%
- fasting insulin levels ([2]; day 315, untreated 422.1 pg/dL): 274.6 pg/dL
- fasting blood glucose levels ([2]; day 315, untreated 117.8 mg/dL): 79.1 mg/dL
- reduction of p-JNK1 level ([2]; immunoblot, vs untreated mice): 86%
- reduction of p-MKK4 level ([2]; immunoblot, vs untreated mice): 53%
- reduction of Colα1(I) synthesis ([2]; insoluble fraction, FIG. 24B): 46.2%
- reduction of Colα1(III) synthesis ([2]; insoluble fraction, FIG. 24B): 59.8%
- reduction of Colα1(V) synthesis ([2]; insoluble fraction, FIG. 24B): 47.1%
- reduction of COL1α(I) synthesis rate ([2]; insoluble fraction): 38%
- reduction of COL1α(III) synthesis rate ([2]; insoluble fraction): 38%
- reduction of COLα1(V) synthesis rate ([2]; insoluble fraction): 60%
- reduction of HA level ([2]; serum, vs NASH diet Day 315): 26%
- reduction of IL-6 level ([2]; serum, vs NASH diet Day 315): 35%
- reduction of OPN level ([2]; serum, vs NASH diet Day 315): 33%
- reduction of TIMP1 level ([2]; serum, vs NASH diet Day 315): 41%
- reduction of Colα1(I) synthesis ([2]; soluble fraction, FIG. 24A): 38.2%
- reduction of Colα1(III) synthesis ([2]; soluble fraction, FIG. 24A): 33.9%
- reduction of Colα1(V) synthesis ([2]; soluble fraction, FIG. 24A): 28.2%
- reduction of COL1α(I) synthesis rate ([2]; soluble fraction): 31%
- reduction of COL1α(III) synthesis rate ([2]; soluble fraction): 37%
- reduction of COLα1(V) synthesis rate ([2]; soluble fraction): 45%
- reduction of hepatic collagen deposition (hydroxyproline levels) [3, 9]: 37%
- reduction of serum ALT levels [3, 9]: 38%
- liver weight ([3]; end of study): decreased
- portal venous pressure (PVP) ([3]; end of study, control 10.1±0.2): 8.52±0.3 mmHg
- TAA-induced fibrosis progression [4]: blocked
- fibrosis severity (F-score) ([5]; 90 and 180 days, vs untreated): lower
- hepatic steatosis grade ([5]; 90 and 180 days, vs untreated): lower
- reduction in liver collagen content (hydroxyproline assay) ([5]; 180 days): 52%
- reduction in percent collagen area (PCA) by quantitative morphometry ([5]; 180 days): 71%
- reduction of hepatic steatosis ([5]; 180 days): 59.8%
- reduction of picrosirius red positive area ([5]; 180 days): 70%
- percent area staining positive for picrosirius red ([5]; 180 days, untreated 4.4%): 1.3%
- level of hepatic steatosis by histology ([5]; 180 days, untreated 13.7%): 5.5%
- ALT ([5]; 270 days): reduction
- AST ([5]; 270 days): reduction
- AUC glucose during oral glucose tolerance test ([5]; 270 days): no statistically significant differences
- AUC insulin levels during oral glucose tolerance test ([5]; 270 days): statistically significant lower
- fasting insulin levels ([5]; 270 days): statistically significant lower
- serum cholesterol levels ([5]; 270 days): reduction
- steatosis and fibrosis progession ([5]; FIGS. 13A and 13B): blocked or prevented
- Hepatic HYP levels ([5]; day 360): 471 µg/g
- reduction in fasting insulin levels ([5]; day 360): 72%
- glucose metabolism ([5]; day 360, FIG. 14): improvement
- reduction of AST [5, 10]: 53%
- reduction of cholesterol [5, 10]: 34%
- reduction of hepatic HYP levels [5, 10]: 49%
- body weight gain ([5]; over 270 day treatment, vs high fat diet fed untreated animals): gained less weight
- liver fibrosis by liver hydroxyproline and area of tissue collagen [6]: reduced

SMILES: Cc1cc(F)c(C(=O)Nc2cccc(-c3nncn3[C@@H](C)C(F)(F)F)n2)cc1-n1cnc(C2CC2)c1 [Compound 2]
- TGF-β1-induced responses in RNA levels of αSMA, COL1α1, TIMP1, and lumican ([1]; pre-treated HSCs, TGF-β1 5 ng/ml for 48 hrs): blocked or inhibited
